The results in this text go back to PubChem BioAssay AID504558 (Broad Institute, 2011).

Broadly, the inhibition is the change of the read-out against control, counted positive when it falls.

The entries are a selection whose mix differs from that of the whole data set. Activity calls are given as the source filed them. No stated cut-off is given here; in the data, active means inhibition above about 41%; inconclusive means no clear call, values can overlap the other calls; inactive means below that.

A short description of the experiment: EBV LMP1-driven NF-kappaB luciferase reporter inhibitors, primary screen, cell-based, luminescence, single point (AID 504558).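 Further: 0% = neutral control wells and 100% = reference inhibitor control.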 The conditions noted are these: LMP1-induced NF-kappaB luciferase reporter cells, at 12.5 µM, stronger effect = higher value. On the technique in general: Reporter assays use an easily measured gene product as a stand-in for the process of interest.
As to `CCOC(=O)Nc1ccc([As](=O)(O)O)c(O)c1`, the inhibition was inactive: -0.133%.
Consider `O=C(O)C(O)c1ccc(N(CCCl)CCCl)cc1` (centres undefined), for which the inhibition was inactive: 30%.
As for `CC1CCNP(=O)(N(CCCl)CCCl)O1` (centres undefined), the figure is inactive: -2.28%.
For `COP(=O)(OC)N1CC1c1ccccc1` (centres undefined) the value was inactive: 5.04%; for `CCCCOc1ccc(C(=O)NCC2(N3CCCCC3)CCCCC2)cc1OC`, inactive: -55.9%; for `Cc1cc(SC(NC(=O)c2ccccc2)C(Cl)(Cl)Cl)nc(C(C)C)n1` (centres undefined), inactive: -0.748%.
Regarding `CCOC(=O)Nc1cccc([As](=O)(O)O)c1`, the inhibition is inactive: -4.91%.
As for `O=P(Nc1ccccn1)(c1cccc2ccccc12)c1cccc2ccccc12`, the inhibition was inactive: 5.42%.
As for `Cc1cc(SC(NC=O)C(Cl)(Cl)Cl)ncn1` (centres undefined), the figure is inactive: 4.95%.
For `O=[N+]([O-])c1ccc(Nc2ccc(Oc3ccc([N+](=O)[O-])cc3[N+](=O)[O-])cc2)c([N+](=O)[O-])c1` the value was inactive: 5.19%; for `C[As](=O)(O)c1cccc(C(=O)O)c1`, inactive: -2.33%; for `O=[As](O)(c1ccc(O)cc1)c1ccccc1O`, inactive: -8.24%.
Regarding `COc1cc(C(=O)NCC2(N3CCOCC3)CCCCC2)ccc1OCC(C)C`, the inhibition is inactive: 24.7%.
As for `O=[N+]([O-])c1ccc(-c2cc([N+](=O)[O-])c(O)c([N+](=O)[O-])c2)cc1`, the figure is inactive: -1.78%; as for `Cc1ccc(OP(=O)(Nc2ccc([N+](=O)[O-])cn2)Oc2ccc(C)cc2)cc1`, inactive: -11%; as for `Cc1ccc2nc3c(c(C)c2c1)CC(C(Cl)Cl)S3` (centres undefined), inactive: -31.3%.
As to `ClCCSc1nnc(-c2cccnc2)o1`, the inhibition is inactive: 7.32%.
For `CC(C)c1ccc(OP(=O)(Nc2ccccn2)Oc2ccccc2F)cc1` (centres undefined) the value was inactive: 0.6%.
Take `COC(=O)C1(C)COP(=O)(N2CCCCCC2)OC1` (centres undefined): the inhibition was inactive: 4.03%.
For `CCN(CC)C(=S)SC(NC=O)C(Cl)(Cl)Cl` (centres undefined) the value was inactive: 8.93%; for `O=C(OC1CN2CCC1CC2)c1cccc2[nH]cnc12` (centres undefined), inactive: -21.6%; for `CC(C)NC(=O)NP(=O)(Oc1ccccc1)Oc1ccccc1`, inactive: -1.78%.
As for `O=[N+]([O-])c1cc([N+](=O)[O-])c(-c2ccn[nH]2)s1`, the figure is inactive: -14.1%; as for `Cc1c2c(nc3ccccc13)SC(C(Cl)Cl)C2` (centres undefined), inactive: -1.52%; as for `O=C(OC1CN2CCC1CC2)C12CC3CC(CC(C3)C1)C2` (centres undefined), inactive: 3.32%.
For `Cc1cc(=O)[nH]c(N[N+](=O)[O-])n1`, the inhibition is inactive: 0.619%.
For `O=P1(N(CCCl)CCCl)Nc2ccccc2N1` the value was inactive: -11.1%; for `O=P1(N(CCCl)CCCl)OCCCN1CCCl` (centres undefined), inactive: 2.4%; for `COc1ccc2nc(NP(=O)(c3ccccc3)c3ccccc3)sc2c1`, inactive: 5.2%.
Turning to `COc1cc(I)ccc1[As](=O)(O)O`, the inhibition was inactive: -2.43%.
For `O=[N+]([O-])c1cc(Oc2ccc([N+](=O)[O-])cc2C(F)(F)F)cc([N+](=O)[O-])c1` the value was inactive: -1.81%.
With `COc1ccc(N/C(=N/P(=O)(N2CCOCC2)N2CCOCC2)N2CCOCC2)cc1`, the inhibition is inactive: 9.02%.
For `O=C(OC1CN2CCC1CC2)c1ccc(Cl)cc1` (centres undefined) the value was inactive: 13%; for `COc1cc(C(=O)NCC2(N3CCOCC3)CCCCC2)cc(Cl)c1OC(C)C`, inactive: -28.3%.
`O=[As](O)(O)c1cccnc1`: the inhibition was inactive: 3.22%.
For `CS(=O)(=O)c1ccc(Cl)c(NC(=O)COC(=O)C(O)(c2ccccc2)c2ccccc2)c1` the value was inactive: -25.6%.
As for `O=[As](O)(c1cccc(O)c1)c1cccc(O)c1`, the figure is inactive: -4.9%; as for `Cc1cccc(OCC(=O)OC2CN3CCC2CC3)c1` (centres undefined), inactive: -1.75%.
Regarding `Cc1ccc(NCCc2c([N+](=O)[O-])cc([N+](=O)[O-])cc2[N+](=O)[O-])cc1`, the inhibition was inactive: 2.62%.
For `Nc1cccc2c([As](=O)(O)O)cccc12`, the inhibition is inactive: 10.5%.
For `CCCOP(=S)(Nc1nc(N)cc(=O)[nH]1)OCCC` the value was inactive: -0.736%; for `COc1cc(C2NCCC3(OCCO3)C2(C)C)cc(OC)c1OC` (centres undefined), inactive: -2.32%.
For `CCOP(=O)(Nc1cccc2ccccc12)OCC` the value was inactive: -0.133%; for `CCOP1(=S)c2c(C)nn(CCC#N)c2N=C(c2ccccc2F)N1C` (centres undefined), inactive: -1.86%; for `O=P(Nc1nccs1)(c1ccccc1)c1nc2ccccc2s1` (centres undefined), inactive: -15.2%.
For `O=P(Nc1nccs1)(Oc1ccccc1)Oc1ccccc1` the value was inactive: 0.946%; for `CS(=O)(=O)c1cc([N+](=O)[O-])c2no[n+]([O-])c2c1`, inactive: -3.76%; for `Nc1ccccc1[As](=O)(O)c1ccccc1`, inactive: 0.621%.
Turning to `O=C(O)COc1ccc([As](=O)(O)O)cc1[N+](=O)[O-]`, the inhibition is inactive: -1.94%.
As to `NC(=O)Nc1ccc([As](=O)(O)O)cc1`, the inhibition was inactive: 1.48%.
For `N#CCCN(C(=O)COC(=O)C(O)(c1ccccc1)c1ccccc1)c1ccc(F)cc1` the value was inactive: -9.77%; for `CN(C(=O)Cc1ccccc1)[C@@H]1CC[C@]2(CCCO2)C[C@H]1N1CCCC1`, inactive: 4.61%; for `CCOP1(=S)c2c(C)nn(CCC#N)c2N=C(c2ccc(F)cc2)N1C` (centres undefined), inactive: -7.27%.
As for `CN(C)C(=O)c1cc([N+](=O)[O-])cc2c1-c1c(cc([N+](=O)[O-])cc1[N+](=O)[O-])C2=O`, the figure is inactive: 31.1%; as for `O=[N+]([O-])c1ccc2c(c1)nnn2O`, inactive: -13.6%; as for `CN(C(=O)Cc1ccc(Cl)c(Cl)c1)[C@H]1CC[C@@]2(CCCO2)C[C@@H]1N1CCCC1`, inactive: 1.84%.
As for `Cc1nn(-c2ccccc2)c2c1P(=O)(N1CCOCC1)N(C)C(c1ccccc1)=N2` (centres undefined), the figure is inactive: 1.74%.
Consider `CC1CCC(C(C)C)C(OP(=O)(Nc2ccccn2)c2ccccc2)C1` (centres undefined), for which the inhibition was inactive: -1.37%.
Take `Cc1ccc(C(=O)OC2CN3CCC2CC3)cc1` (centres undefined): the inhibition is inactive: 6.09%.
As for `CN(C)C1(CNC(=O)c2ccc(S(C)(=O)=O)cc2)CCCCC1`, the figure is inactive: -0.713%.
As for `O=C(/C=C/c1ccccc1)OC1CN2CCC1CC2` (centres undefined), the figure is inactive: -7.13%.
For `CCCC1OP(=O)(Nc2ccccc2)OCC1CC` (centres undefined) the value was inactive: -2.3%; for `O=P1(Nc2ncccn2)COc2ccccc2OC1`, inactive: 3.01%; for `Nc1cccc([As](=O)(O)c2ccccc2)c1`, inactive: -4.43%.
For the molecule `O=P1(Nc2ccc(Br)cn2)COc2ccccc2OC1`, the inhibition was inactive: 3.86%.
For `NS(=O)(=O)c1cccc(NC(=O)COC(=O)C(O)(c2ccccc2)c2ccccc2)c1` the value was inactive: 0.744%; for `Cc1ccc(OCC(=O)OC2CN3CCC2CC3)cc1` (centres undefined), inactive: 3.17%.
With `O=[As](O)(c1cccs1)c1cccs1`, the inhibition was inactive: 0.924%.
For `O=P1(Nc2ccccn2)COc2ccccc2OC1` the value was inactive: -3.55%; for `CCC1=CC2Cc3nc4ccc(Cl)cc4c(N)c3C(C1)C2` (centres undefined), inactive: 11.1%; for `CCOP(=O)(NC(=NC(C)c1ccccc1)NC(C)c1ccccc1)OCC` (centres undefined), inactive: 2.63%.
As for `CCOP(=O)(Nc1ccc(C)cn1)OCC`, the figure is inactive: -6.46%.
As for `O=P1(N(CCCl)CCCl)NCCC(C(F)(F)F)O1` (centres undefined), the figure is inactive: 0.163%; as for `Clc1n[nH]nc1-c1nn[nH][15n]1`, inactive: -3.39%; as for `CC(C)(C)C(=O)NC(Sc1ncccn1)C(Cl)(Cl)Cl` (centres undefined), inactive: 0.053%.
As to `COc1ccccc1CNC(=O)COC(=O)C(O)(c1ccccc1)c1ccccc1`, the inhibition was inactive: 8.48%.
In the case of `CC(C)/C=N\N=C(\N)N[N+](=O)[O-]`, the inhibition is inactive: -2.93%.
With `CN(C(=O)Cc1ccc(Cl)c(Cl)c1)[C@@H]1CCCC[C@H]1N1CCCC1`, the inhibition is inactive: -2.53%.
`CC1(CBr)Cn2c(nc3ccccc3c2=O)S1` (centres undefined): the inhibition is inactive: -9.21%.
